Literature values in US20190183948A1, “USE OF BCL-XL INHIBITOR AND ONCOLYTIC VIRUS IN PREPARATION OF ANTITUMOR DRUG” (GUANGZHOU VIROTECH PHARMACEUTICAL CO., LTD., priority 2016, published 2019).

Amino acid sequences for entries named in this document (tags omitted).
UniProt P10415, whole entry, species assumed: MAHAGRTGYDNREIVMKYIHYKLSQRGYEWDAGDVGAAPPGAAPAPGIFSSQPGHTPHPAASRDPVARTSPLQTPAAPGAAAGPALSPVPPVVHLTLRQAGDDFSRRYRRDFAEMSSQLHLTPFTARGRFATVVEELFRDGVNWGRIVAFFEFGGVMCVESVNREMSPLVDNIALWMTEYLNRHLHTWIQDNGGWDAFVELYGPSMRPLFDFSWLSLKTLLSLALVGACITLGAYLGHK

Target: Bcl-2 (Homo sapiens, UniProt P10415)
Details: cited from earlier work

CC1(C)CCC(c2ccc(Cl)cc2)=C(CN2CCN(c3ccc(C(=O)NS(=O)(=O)c4ccc(N[C@H](CCN5CCOCC5)CSc5ccccc5)c(S(=O)(=O)C(F)(F)F)c4)cc3)CC2)C1 [ABT-263]
Ki: ≤ 1 nM
